The source of these data is patent publication US6355784B1, “Methods and compositions for the manufacture of halogenated anthracyclines with increased antitumor activity, other anthracyclines, halogenated sugars, and glycosyl donors” (priority 1998, dated 2002).

One data set concerns KB cells. The data set is described as follows: MTT cytotoxicity assay, sensitive KB cells. The following applies: relative to doxorubicin. On the technique in general: Tetrazolium dyes change colour on reduction, which living cells bring about.
A further data set concerns MCF-7/VP-16 (MRP) cells. Conditions: compared with DOX.

In the case of 6′-fluoro-doxorubicin [WP 743], in the data set with KB cells, the “fold more cytotoxic than doxorubicin against sensitive KB cells” value amounted to 6.4 fold. In the data set on MCF-7/VP-16 (MRP) cells, the “cytotoxicity in MCF-7/VP-16 cells, in words” value is “significant increase in cytotoxicity”.
